{
  "sequences": {"note": "Sequences of proteins named here, by UniProt entry; tags and fusion partners are left off.", "UniProt P61169, whole entry": "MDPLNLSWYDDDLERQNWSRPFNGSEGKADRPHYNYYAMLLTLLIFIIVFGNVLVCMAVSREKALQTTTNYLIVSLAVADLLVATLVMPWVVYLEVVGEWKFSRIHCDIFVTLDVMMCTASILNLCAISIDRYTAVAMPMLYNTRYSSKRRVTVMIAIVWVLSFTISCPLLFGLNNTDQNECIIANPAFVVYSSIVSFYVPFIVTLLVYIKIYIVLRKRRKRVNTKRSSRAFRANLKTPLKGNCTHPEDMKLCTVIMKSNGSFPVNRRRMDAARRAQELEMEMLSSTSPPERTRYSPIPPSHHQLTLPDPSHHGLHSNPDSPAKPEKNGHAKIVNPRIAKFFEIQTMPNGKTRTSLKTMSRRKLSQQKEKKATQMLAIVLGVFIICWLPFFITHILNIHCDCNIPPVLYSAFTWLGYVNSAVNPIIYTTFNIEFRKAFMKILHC", "UniProt P19327, whole entry": "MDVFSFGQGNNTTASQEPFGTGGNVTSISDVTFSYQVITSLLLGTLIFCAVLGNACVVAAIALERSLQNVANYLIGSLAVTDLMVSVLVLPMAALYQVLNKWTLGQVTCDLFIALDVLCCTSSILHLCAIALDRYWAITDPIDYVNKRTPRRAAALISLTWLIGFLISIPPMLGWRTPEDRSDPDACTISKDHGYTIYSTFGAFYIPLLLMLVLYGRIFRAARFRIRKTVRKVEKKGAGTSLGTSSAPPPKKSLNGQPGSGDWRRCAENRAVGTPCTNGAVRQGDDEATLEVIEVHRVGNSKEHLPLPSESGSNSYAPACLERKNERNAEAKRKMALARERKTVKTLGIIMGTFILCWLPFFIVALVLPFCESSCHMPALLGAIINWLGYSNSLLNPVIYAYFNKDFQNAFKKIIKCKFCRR"},
  "source": "ChEMBL document CHEMBL1129432",
  "about": "“Structure-activity relationships of a series of novel (piperazinylbutyl)thiazolidinone antipsychotic agents related to 3-[4-[4-(6-fluorobenzo[b]thien-3-yl)-1-piperazinyl]butyl]-2,5,5- trimethyl-4-thiazolidinone maleate” (J Med Chem, 1996)",
  "key": {"[1]": {"molecular_target": "D(2) dopamine receptor (Rattus norvegicus, UniProt P61169)", "assay": "Binding affinity towards Dopamine receptor D2 was determined in rat striatum using [3H]- spiperone as radioligand", "assay_type": "tissue-based"}, "[2]": {"molecular_target": "5-hydroxytryptamine receptor 1A (Rattus norvegicus, UniProt P19327)", "assay": "Binding affinity towards serotonin 5-HT1A receptor was determined in rat hippocampus using [3H]8-OH-DPAT as ligand", "assay_type": "tissue-based"}},
  "data": [
    {"compound": "O=C1CSCN1CCCCN1CCN(c2ccc(F)cc2)CC1", "values": [
      {"measurement": "IC50", "setting": "[1]", "value": 12900, "unit": "nM"}
    ]},
    {"compound": "COc1ccccc1N1CCN(CCCCN2CSC(C)C2=O)CC1", "note": "(stereo not given)", "values": [
      {"measurement": "IC50", "setting": "[1]", "value": 786, "unit": "nM"}
    ]},
    {"compound": "Cc1cccc(N2CCN(CCCCN3CSC(C)(C)C3=O)CC2)c1", "values": [
      {"measurement": "IC50", "setting": "[1]", "value": 2640, "unit": "nM"}
    ]},
    {"compound": "CC1SC(C)(C)C(=O)N1CCCCN1CCN(c2nsc3cc(Cl)ccc23)CC1", "note": "(stereo not given)", "values": [
      {"measurement": "IC50", "setting": "[2]", "value": 324, "unit": "nM"},
      {"measurement": "IC50", "setting": "[1]", "value": 286, "unit": "nM"}
    ]}
  ]
}
